In this assay the target is EGFR on EGFR-positive cells (MB-MDA468, A431) (UniProt P00533). Put plainly: cell-based or functional assay.

Substance “CX_N325CL328C mal-val-cit-MMAE (antibody)” yielded a proliferation of A431 cells, % control (WST-1), Ab 0.0002 nM of 98.3 % control; a proliferation of A431 cells, % control (WST-1), Ab 0.0009 nM of 97.5 % control; a proliferation of A431 cells, % control (WST-1), Ab 0.0043 nM of 115 % control; a proliferation of A431 cells, % control (WST-1), Ab 0.0213 nM of 108 % control. For the same substance, the proliferation of A431 cells, % control (WST-1), Ab 0.1066 nM was determined as 104 % control; the proliferation of A431 cells, % control (WST-1), Ab 0.5328 nM was 96.8 % control; the proliferation of A431 cells, % control (WST-1), Ab 2.6640 nM stood at 61.1 % control; the proliferation of A431 cells, % control (WST-1), Ab 13.3200 nM was determined as 44.9 % control. Besides, the proliferation of A431 cells, % control (WST-1), Ab 66.6000 nM came to 24.5 % control; the proliferation of MB-MDA468 cells, % control (WST-1), Ab 0.000 nM stood at 103 % control; the proliferation of MB-MDA468 cells, % control (WST-1), Ab 0.001 nM worked out at 97 % control; the proliferation of MB-MDA468 cells, % control (WST-1), Ab 0.004 nM stood at 98.4 % control. Besides, the proliferation of MB-MDA468 cells, % control (WST-1), Ab 0.021 nM came to 99.9 % control; the proliferation of MB-MDA468 cells, % control (WST-1), Ab 0.107 nM turned out to be 96.7 % control; the proliferation of MB-MDA468 cells, % control (WST-1), Ab 0.533 nM came out at 74 % control; the proliferation of MB-MDA468 cells, % control (WST-1), Ab 2.664 nM was 32.8 % control. Also, the proliferation of MB-MDA468 cells, % control (WST-1), Ab 13.320 nM came to 29.8 % control and the proliferation of MB-MDA468 cells, % control (WST-1), Ab 66.600 nM was 17.5 % control.

For the origin of these results see patent US20200277399A1.
